From BindingDB's records for doi:10.1046/j.1460-9568.2003.02744.x (University of Innsbruck, 2003) come the findings set out here.

By UniProt entry, the sequences of proteins in these tests, tags left out.
UniProt P33535, whole entry: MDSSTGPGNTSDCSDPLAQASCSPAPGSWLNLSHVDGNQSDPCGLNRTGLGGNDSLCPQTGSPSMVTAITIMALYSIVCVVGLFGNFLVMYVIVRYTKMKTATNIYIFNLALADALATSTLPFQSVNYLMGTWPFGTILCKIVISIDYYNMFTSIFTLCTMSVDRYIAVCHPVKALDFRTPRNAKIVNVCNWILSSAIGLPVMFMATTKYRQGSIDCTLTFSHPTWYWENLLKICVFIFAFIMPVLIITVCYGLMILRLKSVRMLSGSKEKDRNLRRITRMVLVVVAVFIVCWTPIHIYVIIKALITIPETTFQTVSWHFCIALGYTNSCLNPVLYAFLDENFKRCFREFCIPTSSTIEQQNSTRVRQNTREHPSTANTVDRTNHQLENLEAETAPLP

The target of this experiment is Mu-type opioid receptor (Rattus norvegicus, UniProt P33535).

The Ki is a dissociation constant, usually derived from enzyme kinetics or from competition with a known ligand. The low end stands for tighter binding, the high end for weaker binding. `C[C@@H](NC(=O)[C@@H](N)Cc1ccc(O)cc1)C(=O)NCC(=O)N(C)[C@@H](Cc1ccccc1)C(=O)NCCO` [CAS_100929-53-1] had a Ki of 1.72 nM.
